This is a selection; strong and weak results do not stand in their true shares. Some results for these compounds are left out of this collection, so the calls shown say nothing about other tests. Active and inactive are the calls of the source.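 The calls were made as follows: active = compounds that cut the enzyme signal by at least half of the control window in the single-dose screen; inactive = the rest.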
What follows are compounds tested against Low molecular weight phosphotyrosine protein phosphatase (Homo sapiens) (UniProt P24666) (assay: inhibition of human LMPTP-A enzyme – biochemical, fluorescence intensity, uHTS, primary screen (AID 651560;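 also: plate controls were DMSO wells with enzyme plus substrate for no effect and substrate without enzyme for full effect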)). Conditions: recombinant LMPTP-A, OMFP fluorogenic substrate, at 20 µM, active compounds read high.
Procedure, shortened: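 material = LMPTP-A | quantity = 0.625 nM enzyme | reagent = OMFP substrate, 400 µM final | buffer or medium = Bis-Tris pH 6.0, DTT, detergent | detection = endpoint fluorescence intensity from OMFP dephosphorylation | dosing = single 20 µM dose | read-out basis = % inhibition relative to no-enzyme and uninhibited control wells | control set = no-enzyme and uninhibited controls | timing = 50 min at room temperature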

Protein sequences, listed by entry. Tags and fused reporters are not part of them.
UniProt P24666, whole entry: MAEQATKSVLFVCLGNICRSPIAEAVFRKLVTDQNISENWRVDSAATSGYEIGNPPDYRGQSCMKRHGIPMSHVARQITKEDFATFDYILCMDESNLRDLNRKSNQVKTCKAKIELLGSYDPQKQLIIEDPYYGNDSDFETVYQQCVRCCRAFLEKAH

Structure (SMILES)	inhibition
O=C(NCC1(N2CCCCC2)CCCCC1)c1cc([N+](=O)[O-])ccc1Cl	inactive: -0.491%
CN1[C@@H]2CC[C@H]1CC(OC(=O)C(O)(c1ccccc1)c1ccccc1)C2 (stereo partly specified)	inactive: -2.06%
CC(C)N1C(=O)CC2(CCN(CCOC(=O)C(O)(c3ccccc3)c3ccccc3)CC2)C1=O	inactive: -0.194%
COc1cc(SC)ccc1C(=O)NCC1(N(C)C)CCCCC1	inactive: -1.31%
CCN(CC)CC(C)C(C)OC(=O)C(O)(c1ccccc1)c1ccccc1 (stereo unspecified)	inactive: -1.01%
Cc1ccc(C(=O)NCC2(N3CCCCC3)CCCCC2)cc1	inactive: 1.49%
CN(C)c1ccc(C(=O)NCC2(N(C)C)CCCCC2)cc1	inactive: -0.262%
CN(C)C1CCCC1OC(=O)C(O)(c1ccccc1)c1ccccc1 (stereo unspecified)	inactive: -2.05%
Cc1ccccc1C(=O)NCC1(N2CCCCC2)CCCCC1	inactive: 0.153%
O=C(NCC1(N2CCCCC2)CCCCC1)c1cc(F)c(F)cc1Cl	inactive: -0.459%
C=CCN1CCN(CCOC(=O)C(O)(c2ccccc2)c2ccccc2)CC1	inactive: -0.925%
O=C(NCC1(N2CCCCC2)CCCCC1)c1cccc(Br)c1	inactive: -0.513%
CCN1CCCC(OC(=O)C2(O)c3ccccc3C=Cc3ccccc32)C1 (stereo unspecified)	inactive: -2.2%
Cc1cc(C(=O)NCC2(N3CCCCC3)CCCCC2)ccc1[N+](=O)[O-]	inactive: 0.225%
COc1ccc(C(=O)NCC2(N(C)C)CCCCC2)cc1	inactive: -0.0208%
CN(C)C1(CNC(=O)c2ccc(Br)cc2)CCCCC1	inactive: -1.04%
COc1cc(C(=O)NCC2(N(C)C)CCCCC2)c([N+](=O)[O-])cc1OC	inactive: -0.456%
COc1ccc(Cl)cc1C(=O)NCC1(N(C)C)CCCCC1	inactive: -0.945%
COc1cccc(C(=O)NCC2(N3CCCCC3)CCCCC2)c1	inactive: -2.3%
O=C(NCC1(N2CCCCC2)CCCCC1)c1cccc(Cl)c1	inactive: -0.701%
O=C(OC1CN2CCC1CC2)C(CO)(c1ccccc1)c1ccccc1 (stereo unspecified)	inactive: -0.0851%
COc1ccc(Br)c(C(=O)NCC2(N3CCCCC3)CCCCC2)c1	inactive: 9.59%
C=C(C)C#CC(O)(C(=O)OC1CCN(C)CC1)c1ccccc1 (stereo unspecified)	inactive: -0.259%
CN(C)c1cccc(C(=O)NCC2(N(C)C)CCCCC2)c1	inactive: -0.259%
O=C(OCCN1CCCC1)C(O)(c1ccccc1)c1ccccc1	inactive: -1.01%
CC(C)Oc1ccc(C(=O)NCC2(N(C)C)CCCCC2)cc1	inactive: -1.7%

— PubChem BioAssay AID651560 (Sanford-Burnham Center for Chemical Genomics, 2012)
